Results: patent publication US20240360179A1, “STAPLED PEPTIDES AND METHODS THEREOF” (FOG PHARMACEUTICALS, INC., priority 2021, published 2024)

By UniProt entry, the sequences of proteins in these tests, tags left out.
UniProt P35222, whole entry: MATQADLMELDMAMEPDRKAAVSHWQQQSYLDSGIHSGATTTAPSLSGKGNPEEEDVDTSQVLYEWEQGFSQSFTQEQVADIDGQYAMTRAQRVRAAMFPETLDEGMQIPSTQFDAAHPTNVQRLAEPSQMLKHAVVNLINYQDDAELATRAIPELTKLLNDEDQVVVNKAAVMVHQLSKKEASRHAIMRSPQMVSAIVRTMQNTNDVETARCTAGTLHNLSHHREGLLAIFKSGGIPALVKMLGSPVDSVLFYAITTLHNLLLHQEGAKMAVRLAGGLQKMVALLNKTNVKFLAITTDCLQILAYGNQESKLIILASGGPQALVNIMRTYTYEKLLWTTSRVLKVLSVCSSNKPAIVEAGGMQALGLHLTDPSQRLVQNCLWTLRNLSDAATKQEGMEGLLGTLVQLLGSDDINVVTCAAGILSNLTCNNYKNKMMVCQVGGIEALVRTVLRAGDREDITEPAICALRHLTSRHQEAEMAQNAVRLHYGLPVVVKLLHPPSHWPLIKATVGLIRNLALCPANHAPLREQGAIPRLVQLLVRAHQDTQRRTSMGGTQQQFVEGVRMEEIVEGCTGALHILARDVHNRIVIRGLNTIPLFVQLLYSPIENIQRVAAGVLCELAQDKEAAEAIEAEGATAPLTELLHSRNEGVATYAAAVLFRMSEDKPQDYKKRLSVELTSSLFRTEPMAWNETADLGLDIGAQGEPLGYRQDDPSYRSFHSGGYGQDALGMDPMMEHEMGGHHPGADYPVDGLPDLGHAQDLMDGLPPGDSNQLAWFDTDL

What follows are substances tested against T1, full-length B-Catenin (Uniprot ID P35222) (Homo sapiens, UniProt P35222). Conditions: competition fluorescence polarization; read-out: beta-Catenin FP IC50.
T1 construct: 10 nM full-length B-Catenin (Uniprot ID P35222)
Format: binding

Row | Substance | IC50 [µM]
1 | Ac-PL3-Asp-Ile-B5-Asp-3COOHF-Aib-Ala-Phe-GlnR*3-PyrS2-Phe-34ClF-1MeK*3-NH2 [I-1370] | < 0.05
2 | Ac-PL3-Asp-Ile-B5-Asp-3COOHF-Aib-Ala-Phe-GlnR*3-PyrS2-Phe-34ClF-AsnEDA*3-NH2 [I-1376] | < 0.05
3 | Ac-PL3-Asp-Ile-B5-Asp-3COOHF-Aib-Ala-Phe-GlnR*3-PyrS2-Phe-34ClF-AsnMe2EDA*3-NH2 [I-1415] | < 0.05
4 | Ac-PL3-Asp-Ile-B5-Asp-3COOHF-Aib-Ala-Phe-GlnR*3-PyrS2-Phe-34ClF-AsnMeEDA*3-NH2 [I-1416] | < 0.05
5 | Ac-PL3-Asp-Ile-B5-Asp-3COOHF-Aib-Ala-Phe-GlnR*3-PyrS2-Phe-34ClF-AsnPpz*3-NH2 [I-1379] | < 0.05
6 | Ac-PL3-Asp-Ile-B5-Asp-3COOHF-Aib-Ala-Phe-GlnR*3-PyrS2-Phe-34ClF-AsnR3APyr*3-NH2 [I-1419] | < 0.05
7 | Ac-PL3-Asp-Ile-B5-Asp-3COOHF-Aib-Ala-Phe-GlnR*3-PyrS2-Phe-34ClF-AsnS3APyr*3-NH2 [I-1423] | < 0.05
8 | Ac-PL3-Asp-Ile-B5-Asp-3COOHF-Aib-Ala-Phe-GlnR*3-PyrS2-Phe-34ClF-GlnEDA*3-NH2 [I-1378] | < 0.05
9 | Ac-PL3-Asp-Ile-B5-Asp-3COOHF-Aib-Ala-Phe-GlnR*3-PyrS2-Phe-34ClF-GlnMe2EDA*3-NH2 [I-1414] | < 0.05
10 | Ac-PL3-Asp-Ile-B5-Asp-3COOHF-Aib-Ala-Phe-GlnR*3-PyrS2-Phe-34ClF-GlnPpz*3-NH2 [I-1380] | < 0.05
11 | Ac-PL3-Asp-Ile-B5-Asp-3COOHF-Aib-Ala-Phe-GlnR*3-PyrS2-Phe-34ClF-GlnR3APyr*3-NH2 [I-1382] | < 0.05
12 | Ac-PL3-Asp-Ile-B5-Asp-3COOHF-Aib-Ala-Phe-GlnR*3-PyrS2-Phe-34ClF-GlnS3APyr*3-NH2 [I-1385] | < 0.05
13 | Ac-PL3-Asp-Ile-B5-Asp-3COOHF-Aib-Ala-Phe-GlnR*3-PyrS2-Phe-34ClF-Lys*3-NH2 [I-1367] | < 0.05
14 | Ac-PL3-Asp-Ile-B5-Asp-3COOHF-Aib-Ala-Phe-GlnR*3-PyrS2-Phe-34ClF-dLys*3-Ala-NH2 [I-1778] | < 0.05
15 | Ac-PL3-Asp-Ile-B5-Asp-3COOHF-Aib-Ala-Phe-GlnS3APyr*3-PyrS2-Phe-34ClF-GlnR*3-NH2 [I-1383] | < 0.05
16 | Ac-PL3-Asp-Ile-B5-Asp-3COOHF-Aib-Ala-Phe-Lys*3-PyrS2-2FF-34ClF-GlnR*3-NH2 [I-1539] | < 0.05
17 | Ac-PL3-Asp-Ile-B5-Asp-3COOHF-Aib-Ala-Phe-Lys*3-PyrS2-2FF-BztA-GlnR*3-NH2 [I-1543] | < 0.05
18 | Ac-PL3-Asp-Ile-B5-Asp-3COOHF-Aib-Ala-Phe-Lys*3-PyrS2-2MeF-34ClF-GlnR*3-NH2 [I-1508] | < 0.05
19 | Ac-PL3-Asp-Ile-B5-Asp-3COOHF-Aib-Ala-Phe-Lys*3-PyrS2-2MeF-BztA-GlnR*3-NH2 [I-1546] | < 0.05
20 | Ac-PL3-Asp-Ile-B5-Asp-3COOHF-Aib-Ala-Phe-Lys*3-PyrS2-3Thi-2BrF-GlnR*3-NH2 [I-1612] | < 0.05
21 | Ac-PL3-Asp-Ile-B5-Asp-3COOHF-Aib-Ala-Phe-Lys*3-PyrS2-3Thi-3BrF-GlnR*3-NH2 [I-1613] | < 0.05
22 | Ac-PL3-Asp-Ile-B5-Asp-3COOHF-Aib-Ala-Phe-Lys*3-PyrS2-3Thi-3F3MeF-GlnR*3-NH2 [I-1614] | < 0.05

Row | Substance | IC50 [µM]
23 | Ac-PL3-Asp-Ile-B5-Asp-3COOHF-Aib-Ala-Phe-Lys*3-PyrS2-3Thi-4F3MeF-GlnR*3-NH2 [I-1615] | < 0.05
24 | Ac-PL3-Asp-Ile-B5-Asp-3COOHF-Aib-Ala-Phe-Lys*3-PyrS2-3Thi-34ClF-GlnR*3-Val-Glu-Ala-NH2 [I-1263] | < 0.05
25 | Ac-PL3-Asp-Ile-B5-Asp-3COOHF-Aib-Ala-Phe-Lys*3-PyrS2-3Thi-34ClF-GlnR*3-Val-Glu-Leu-NH2 [I-1264] | < 0.05
26 | Ac-PL3-Asp-Ile-B5-Asp-3COOHF-Aib-Ala-Phe-Lys*3-PyrS2-3Thi-34ClF-GlnR*3-Val-Thr-Ala-NH2 [I-1265] | < 0.05
27 | Ac-PL3-Asp-Ile-B5-Asp-3COOHF-Aib-Ala-Phe-Lys*3-PyrS2-3Thi-34MeF-GlnR*3-Ala-NH2 [I-1099] | < 0.05
28 | Ac-PL3-Asp-Ile-B5-Asp-3COOHF-Aib-Ala-Phe-Lys*3-PyrS2-3Thi-34MeF-GlnR*3-NH2 [I-1100] | < 0.05
29 | Ac-PL3-Asp-Ile-B5-Asp-3COOHF-Aib-Ala-Phe-Lys*3-PyrS2-3Thi-BztA-GlnR*3-Ala-NH2 [I-706] | < 0.05
30 | Ac-PL3-Asp-Ile-B5-Asp-3COOHF-Aib-Ala-Phe-Lys*3-PyrS2-DipA-34ClF-GlnR*3-NH2 [I-1534] | < 0.05
31 | Ac-PL3-Asp-Ile-B5-Asp-3COOHF-Aib-Ala-Phe-Lys*3-PyrS2-DipA-34ClF-GlnR*3-NH2 [I-1535] | 0.05 to 0.2
32 | Ac-PL3-Asp-Ile-B5-Asp-3COOHF-Aib-Ala-Phe-Lys*3-PyrS2-Phe-2BrF-GlnR*3-NH2 [I-1602] | 0.05 to 0.2
33 | Ac-PL3-Asp-Ile-B5-Asp-3COOHF-Aib-Ala-Phe-Lys*3-PyrS2-Phe-2BrF-GlnR*3-NH2 [I-1603] | 0.2 to 0.75
34 | Ac-PL3-Asp-Ile-B5-Asp-3COOHF-Aib-Ala-Phe-Lys*3-PyrS2-Phe-2ClF-GlnR*3-NH2 [I-1596] | 0.05 to 0.2
35 | Ac-PL3-Asp-Ile-B5-Asp-3COOHF-Aib-Ala-Phe-Lys*3-PyrS2-Phe-3BrF-GlnR*3-NH2 [I-1604] | < 0.05
36 | Ac-PL3-Asp-Ile-B5-Asp-3COOHF-Aib-Ala-Phe-Lys*3-PyrS2-Phe-3ClF-GlnR*3-NH2 [I-1598] | < 0.05
37 | Ac-PL3-Asp-Ile-B5-Asp-3COOHF-Aib-Ala-Phe-Lys*3-PyrS2-Phe-3F3MeF-GlnR*3-NH2 [I-1608] | < 0.05
38 | Ac-PL3-Asp-Ile-B5-Asp-3COOHF-Aib-Ala-Phe-Lys*3-PyrS2-Phe-3MeF-GlnR*3-NH2 [I-1601] | < 0.05
39 | Ac-PL3-Asp-Ile-B5-Asp-3COOHF-Aib-Ala-Phe-Lys*3-PyrS2-Phe-4BrF-GlnR*3-NH2 [I-1606] | < 0.05
40 | Ac-PL3-Asp-Ile-B5-Asp-3COOHF-Aib-Ala-Phe-Lys*3-PyrS2-Phe-4ClF-GlnR*3-NH2 [I-1600] | < 0.05
41 | Ac-PL3-Asp-Ile-B5-Asp-3COOHF-Aib-Ala-Phe-Lys*3-PyrS2-Phe-4F3MeF-GlnR*3-NH2 [I-1610] | < 0.05
42 | Ac-PL3-Asp-Ile-B5-Asp-3COOHF-Aib-Ala-Phe-Lys*3-PyrS2-Phe-34ClF-GlnR*3-Ala-Ala-Ala-[Ac]Lys-NH2 [I-1395] | < 0.05
43 | Ac-PL3-Asp-Ile-B5-Asp-3COOHF-Aib-Ala-Phe-Lys*3-PyrS2-Phe-34ClF-GlnR*3-Ala-Ala-Ala-[mPEG4]Lys-NH2 [I-1411] | < 0.05
44 | Ac-PL3-Asp-Ile-B5-Asp-3COOHF-Aib-Ala-Phe-Lys*3-PyrS2-Phe-34ClF-GlnR*3-Ala-Ala-Ala-[mPEG8]Lys-NH2 [I-1412] | < 0.05

Row | Substance | IC50 [µM]
45 | Ac-PL3-Asp-Ile-B5-Asp-3COOHF-Aib-Ala-Phe-Lys*3-PyrS2-Phe-34ClF-GlnR*3-Ala-Ala-Ala-[mPEG16]Lys-NH2 [I-1413] | < 0.05
46 | Ac-PL3-Asp-Ile-B5-Asp-3COOHF-Aib-Ala-Phe-Lys*3-PyrS2-Phe-34ClF-GlnR*3-Ala-Ala-[Ac]Lys-NH2 [I-1393] | < 0.05
47 | Ac-PL3-Asp-Ile-B5-Asp-3COOHF-Aib-Ala-Phe-Lys*3-PyrS2-Phe-34ClF-GlnR*3-Ala-Ala-[mPEG4]Lys-NH2 [I-1405] | 0.05 to 0.2
48 | Ac-PL3-Asp-Ile-B5-Asp-3COOHF-Aib-Ala-Phe-Lys*3-PyrS2-Phe-34ClF-GlnR*3-Ala-Ala-[mPEG8]Lys-NH2 [I-1406] | < 0.05
49 | Ac-PL3-Asp-Ile-B5-Asp-3COOHF-Aib-Ala-Phe-Lys*3-PyrS2-Phe-34ClF-GlnR*3-Ala-Ala-[mPEG16]Lys-NH2 [I-1407] | < 0.05
50 | Ac-PL3-Asp-Ile-B5-Asp-3COOHF-Aib-Ala-Phe-Lys*3-PyrS2-Phe-34ClF-GlnR*3-Ser-Glu-Ala-NH2 [I-1352] | < 0.05
51 | Ac-PL3-Asp-Ile-B5-Asp-3COOHF-Aib-Ala-Phe-Lys*3-PyrS2-Phe-34ClF-GlnR*3-Ser-Glu-Leu-NH2 [I-1358] | < 0.05
52 | Ac-PL3-Asp-Ile-B5-Asp-3COOHF-Aib-Ala-Phe-Lys*3-PyrS2-Phe-34ClF-GlnR*3-Ser-Lys-Ala-NH2 [I-1356] | < 0.05
53 | Ac-PL3-Asp-Ile-B5-Asp-3COOHF-Aib-Ala-Phe-Lys*3-PyrS2-Phe-34ClF-GlnR*3-Ser-Lys-Leu-NH2 [I-1362] | < 0.05
54 | Ac-PL3-Asp-Ile-B5-Asp-3COOHF-Aib-Ala-Phe-Lys*3-PyrS2-Phe-34ClF-GlnR*3-Ser-Ser-Ala-NH2 [I-1354] | < 0.05
55 | Ac-PL3-Asp-Ile-B5-Asp-3COOHF-Aib-Ala-Phe-Lys*3-PyrS2-Phe-34ClF-GlnR*3-Ser-Ser-Leu-NH2 [I-1360] | < 0.05
56 | Ac-PL3-Asp-Ile-B5-Asp-3COOHF-Aib-Ala-Phe-Lys*3-PyrS2-Phe-34ClF-GlnR*3-Thr-Glu-Ala-NH2 [I-1351] | < 0.05
57 | Ac-PL3-Asp-Ile-B5-Asp-3COOHF-Aib-Ala-Phe-Lys*3-PyrS2-Phe-34ClF-GlnR*3-Thr-Glu-Leu-NH2 [I-1357] | < 0.05
58 | Ac-PL3-Asp-Ile-B5-Asp-3COOHF-Aib-Ala-Phe-Lys*3-PyrS2-Phe-34ClF-GlnR*3-Thr-Lys-Ala-NH2 [I-1355] | < 0.05
59 | Ac-PL3-Asp-Ile-B5-Asp-3COOHF-Aib-Ala-Phe-Lys*3-PyrS2-Phe-34ClF-GlnR*3-Thr-Lys-Leu-NH2 [I-1361] | < 0.05
60 | Ac-PL3-Asp-Ile-B5-Asp-3COOHF-Aib-Ala-Phe-Lys*3-PyrS2-Phe-34ClF-GlnR*3-Thr-Ser-Ala-NH2 [I-1353] | < 0.05
61 | Ac-PL3-Asp-Ile-B5-Asp-3COOHF-Aib-Ala-Phe-Lys*3-PyrS2-Phe-34ClF-GlnR*3-Thr-Ser-Leu-NH2 [I-1359] | < 0.05
62 | Ac-PL3-Asp-Ile-B5-Asp-3COOHF-Aib-Ala-Phe-Lys*3-PyrS2-Phe-34ClF-GlnR*3-Val-Glu-Ala-NH2 [I-1252] | < 0.05
63 | Ac-PL3-Asp-Ile-B5-Asp-3COOHF-Aib-Ala-Phe-Lys*3-PyrS2-Phe-34ClF-GlnR*3-Val-Glu-Leu-NH2 [I-1254] | < 0.05
64 | Ac-PL3-Asp-Ile-B5-Asp-3COOHF-Aib-Ala-Phe-Lys*3-PyrS2-Phe-34ClF-GlnR*3-Val-Thr-Ala-NH2 [I-1256] | < 0.05
